This is an account of results in paper PMC3897212 (Journal of pharmacokinetics and pharmacodynamics, 2013).

Where two headings read alike, the source gives them in different places. Marks after values point to notes of the source that are not given here.

Data set [1] in a line: Mouse PBPK model of lapatinib. Conditions: parameter estimate (CV%) fitted to 60 mg/kg cohort.
Data set [2] in a line: Human PBPK model of lapatinib. Conditions: human PBPK model parameter.
For data set [3] the following is noted: human plasma, fasted, cited from earlier work.

For the compound `CS(=O)(=O)CCNCc1ccc(-c2ccc3ncnc(Nc4ccc(OCc5cccc(F)c5)c(Cl)c4)c3c2)o1` [lapatinib, N-{3-chloro-4-[(3-fluorobenzyl)oxy]phenyl}-6-[5-({[2-(methylsulfonyl)ethyl]amino}methyl)-2-furyl]-4-quinazolinamine], the “Partition coefficient Heart:plasma” value in data set [1] is on record as 215 (22) Ratio; in data set [2], 215 Ratio. The “Observed t1/2” value is 11.1 ^a (7.3–16.8) h in data set [3] (175 mg multiple dose, healthy, geometric mean); 16.9 ^b (15.1–34.3) h in data set [3] (1,200 mg multiple dose, cancer, median); 11.5 ^b (10.1–19.5) h in data set [3] (1,200 mg single dose, cancer, median); 15.7 ^b (11.0–133.1) h in data set [3] (1,800 mg single dose, cancer, median).
